The values that follow come from patent US10858688.

The test has as its target focal adhesion in fixed and permeabilized Xenopus laevis XTC cells (Xenopus laevis). The test can be described thus: single-molecule speckle (SiMS) TIRF imaging of EGFP-fused probe (cell lysate) on fixed, permeabilized XTC cells; exponential fit of speckle lifetimes.

One may read the half-life as how long it takes for the measured level to halve. The low end stands for rapid decline, the high end for slow decline.

As for “Src fragment (amino acid residues 1-251 of sequence number 16), EGFP-3xFLAG fused at the C terminus”, the half-life is 0.161 s.
In the case of “Src fragment (amino acid residues 3-251 of sequence number 16), EGFP-3xFLAG fused at the C terminus”, the half-life amounted to 0.141 s.
